Results published in US9360484B2, “Anti-FcRH5 antibodies and immunoconjugates and methods of use” (Genentech, Inc., priority 2009, dated 2016).

Columns and labels:
OPM2-FcRH5 tumors [1] = assay: Inhibition of in vivo tumor growth, OPM2-FcRH5 xenografts (Example 5); parameters: species or system CB17 ICR SCID mice; settings: single i.v. dose 4 mg/kg Ab, day 0, 8 mice
Method: To test the efficacy of hu10A8 thioMAb drug conjugates with MC-vc-PAB-MMAE and hu10A8 drug conjugates with SPDB-DM4, the effects of the 10A8 thioMab drug conjugates and 10A8 drug conjugates on tumors in mice were analyzed.
(§1) Specifically, the ability of the antibodies to regress tumors in OPM2 cells (Multiple myeloma cell line) stably transfected with human FcRH5 was examined.
(§2) After transfection of linearized pRK.CMV.PD.nbe.FcRH5 into OPM2 cells and puromycin (Calbiochem, San Diego, Calif.) selection, surviving cells were separated for FcRH5 expressing cells with biotin (Pierce Biotechnology, Rockford, Il) labeled anti-FcRH5.7D11 and MACS anti-Biotin microbeads on an MACS LS column (Miltenyi Biotec, Auburn, Calif.).
For analysis of efficacy of hu10A8 thioMAb drug conjugates with MC-vc-PAB-MMAE and hu10A8 druge conjugates with SPDB-DM4, female CB17 ICR SCID mice (6-8 weeks of age from Charles Rivers Laboratories; Hollister, Calif.) were inoculated subcutaneously with 2×10^7 OPM2-FcRH5 cells via injection into the flanks of CB17 ICR SCID mice and the xenograft tumors were allowed to grow to an average of 180 mm^3. Day 0 refers to the day the tumors were an average of 100-250 mm^3 and when the first/or only dose of treatment was administered, unless indicated specifically below. Tumor volume was calculated based on two dimensions, measured using calipers, and was expressed in mm^3 according to the formula: V=0.5a X b^2, where a and b are the long and the short diameters of the tumor, respectively. Data collected from each experimental group were expressed as mean±SE. Groups of 8 mice were treated with a single intravenous (i.v.) dose of 2, 4, or 8 mg ADC/kg of with anti-FcRH5 ADC or control antibody-drug conjugates. Tumors were measured twice a week throughout the experiment. Body weights of mice were measured once a week throughout the experiment. […] All animal protocols were approved by an Institutional Animal Care and Use Committee (IACUC).

OPM2-FcRH5 tumors [2] = assay: Inhibition of in vivo tumor growth, OPM2-FcRH5 xenografts, dose range of hu10A8-SPDB-DM4 (Example 6); parameters: species or system CB17 ICR SCID mice; settings: single i.v. dose 12 mg/kg Ab, day 0, 9 mice
Source text: as §1, §2
Day 0 refers to the day the tumors were an average of 100-250 mm^3 and when the first/or only dose of treatment was administered, unless indicated specifically below. […] Data collected from each experimental group were expressed as mean±SE. […] Tumors were measured twice a week throughout the experiment. Body weights of mice were measured once a week throughout the experiment. […] All animal protocols were approved by an Institutional Animal Care and Use Committee (IACUC).

[3] = tested on: OPM2-FcRH5 tumors (OPM2 multiple myeloma cells stably transfected with human FcRH5); assay: OPM2-FcRH5 xenograft: Hu anti-FcRH5 10A8-SPDB-DM4 alone and in combination with Velcade; assay type: in vivo, CB17 ICR SCID mice; settings: 37 day time course; ADC 4 mg/kg single IV day 0; Velcade 1 mg/kg IV days 0, 3, 7, 10
Source text: Specifically, the ability of the antibody and Velcade® to regress tumors in OPM2 cells (Multiple myeloma cell line) stably transfected with human FcRH5 was examined. After transfection of linearized […]5 into OPM2 cells and puromycin (Calbiochem, San Diego, Calif.) selection, surviving cells were separated for FcRH5 expressing cells with biotin (Pierce Biotechnology, Rockford, Il) labeled anti-FcRH5.7D11 and MACS anti-Biotin microbeads on an MACS LS column (Miltenyi Biotec, Auburn, Calif.). Post separation FcRH5 expression was confirmed by FACS analysis using anti-FcRH5 antibodies (10A8) and an OPM2 cell line transfected, in the same manner, with the empty vector pRK.CMV.PD.nbe as a negative control. […] Tumor volume was calculated based on two dimensions, measured using calipers, and was expressed in mm3 according to the formula: […] Data collected from each experimental group were expressed as mean±SE. Mice were randomized into six groups of 9 mice each and dosed. […] Group 2 received a single IV injection of histidine buffer on Day 0 plus IV injections of 0.9% sodium chloride (saline) twice weekly for two weeks on Days 0, 3, 7, and 10 as a vehicle control. […] Tumors were measured twice a week throughout the experiment. Body weights of mice were measured twice a week for the first three weeks. […] All animal protocols were approved by an Institutional Animal Care and Use Committee (IACUC). Negative control included anti-HER2 (HERCEPTIN®) (trastuzumab)) based conjugate (SPDB-DM4).

[4] = tested on: EJM-FcRH5.LSP.2 tumors (EJM multiple myeloma cells stably transfected with human FcRH5); assay: EJM-FcRH5.LSP.2 xenograft: hu10A8-SPDB-DM4 at different dosages; assay type: in vivo, CB17 ICR SCID mice; settings: 8 mg/kg single IV day 0; 24 day time course
Method: To test the efficacy of hu10A8 drug conjugates with SPDB-DM4 (“hu-Anti-FcRH5 (10A8)-SPDB-DM4”) at different dosages, the effects of the conjugated antibody on tumors in mice were analyzed.
Specifically, the ability of the antibodies to regress tumors in EJM cells (Multiple myeloma cell line) stably transfected with human FcRH5 was examined.
EJM (ACC-560) cells are a commercially available human multiple myeloma cell line obtained from DSMZ (Germany).
For analysis of efficacy of hu10A8 drug conjugates with SPDB-DM4, female CB17 ICR SCID mice (6-8 weeks of age from Charles Rivers Laboratories; Hollister, Calif.) were inoculated subcutaneously with 2×10^7 EJM2-FcRH5.LSP.2 cells via injection into the flanks of CB17 ICR SCID mice and the xenograft tumors were allowed to grow to an average of 134 mm^3. Day 0 refers to the day the tumors were an average of 100-250 mm^3 and when the first/or only dose of treatment was administered, unless indicated specifically below. Tumor volume was calculated based on two dimensions, measured using calipers, and was expressed in mm^3 according to the formula: V=0.5a×b^2, where a and b are the long and the short diameters of the tumor, respectively. Data collected from each experimental group were expressed as mean±SE. Groups of 8 mice were treated with a single intravenous (i.v.) dose ranging from 2 to 8 mg ADC/kg of with anti-FcRH5 ADC or control antibody-drug conjugates (ADCs). Tumors were measured twice a week throughout the experiment. Body weights of mice were measured once a week for 2 weeks. […] All animal protocols were approved by an Institutional Animal Care and Use Committee (IACUC).
Negative control included anti-HER2 (HERCEPTIN® (trastuzumab)) based conjugate (SPDB-DM4).

| Substance | CR (Complete Remission, number of mice) (OPM2-FcRH5 tumors [1]) | PR (Partial Regression, number of mice) (OPM2-FcRH5 tumors [1]) | TI (number of observable tumors at end of study) (OPM2-FcRH5 tumors [1]) | CR (Complete Remission, number of mice) (OPM2-FcRH5 tumors [2]) | PR (Partial Regression, number of mice) (OPM2-FcRH5 tumors [2]) | CR (mice with Complete Remission: tumor volume dropped to 0 mm^3) [3] | PR (mice with Partial Regression: tumor volume dropped below 50% of day 0) [3] | TI (number of observable tumors at end of study) [3] | CR (mice with Complete Remission) [4] | PR (mice with Partial Regression) [4] | TI (number of observable tumors at end of study) [4] |
| --- | --- | --- | --- | --- | --- | --- | --- | --- | --- | --- | --- |
| Anti-Her2 (4D5)-spdb-dm4: negative control, humanized anti-HER2 conjugated with SPDB-DM4 | 0 | 0 | 8/8 | 0 | 0 |  |  |  |  |  |  |
| Hu anti-Her2 Trastuzumab-SPDB-DM4 |  |  |  |  |  | 0 | 0 | 8/8 | 0 | 0 | 8/8 |
